Reference: PMC5103216, “Novel Agonist Bioisosteres and Common Structure-Activity Relationships for The Orphan G Protein-Coupled Receptor GPR139” (Scientific Reports, 2016)
pEC50: −log10 of the molar value.

Sequences of proteins named here, by UniProt entry; tags and fusion partners are left off.
UniProt Q6DWJ6, whole entry: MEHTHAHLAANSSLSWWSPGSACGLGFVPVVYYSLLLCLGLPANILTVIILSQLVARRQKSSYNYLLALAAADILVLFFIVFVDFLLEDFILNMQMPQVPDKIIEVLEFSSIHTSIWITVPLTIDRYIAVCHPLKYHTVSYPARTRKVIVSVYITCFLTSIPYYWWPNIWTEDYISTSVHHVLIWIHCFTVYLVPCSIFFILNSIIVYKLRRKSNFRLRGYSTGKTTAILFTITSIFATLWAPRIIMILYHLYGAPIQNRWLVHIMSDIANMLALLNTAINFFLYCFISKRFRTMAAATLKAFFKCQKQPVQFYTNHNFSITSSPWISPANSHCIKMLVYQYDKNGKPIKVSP

Biological target: GPR139 (Homo sapiens, UniProt Q6DWJ6)
Assay: Fluo-4 Ca2+-assay in CHO-k1 cells stably expressing GPR139 (CHO-GPR139)
Assay type: cell-based
Settings: values in Figure 5 and Supplementary Chart 1
Experimental: Compound 1a[11] was kindly provided by H. Lundbeck A/S, Denmark. Compound 7c (Enamine no: Z31449867) was tested as a racemate, as the (S)-form described by Janssen et al. was not commercially available. All compounds were dissolved to 20 mM in DMSO (Sigma, D2650) and subsequently diluted in a HEPES buffer (HBSS (Invitrogen, 14025) supplemented with 20 mM HEPES + 1 mM MgCl2 + 1 mM CaCl2, pH = 7.4) to a final concentration 0.5% DMSO in the assay. The DMSO level was kept constant for all concentrations of all compounds. DMSO was confirmed not to have any activity by itself at this concentration. L-Tryptophan (T0254) and L-Phenylalanine (P2126) were obtained from Sigma-Aldrich and dissolved directly in buffer.
All compounds were tested on a CHO-k1 cell line stably expressing GPR139 (CHO-GPR139) kindly provided by H. Lundbeck A/S, Denmark, and also on a CHO-k1 cell line stably expressing the M1 receptor (CHO-M1) (The Missouri S&T cDNA Resource Center, #CEM100TN00) to check for specificity. The CHO-GPR139 was grown in Dulbecco’s modified eagle medium (DMEM) F12-Kaighn’s (Gibco, 21127) supplemented with 10% dialysed fetal bovine serum (Gibco, 26400, United States origin), 1% GlutaMAX^TM-I (100X) (Gibco, 35050), and 100 units/mL penicillin and 100 μg/mL streptomycin (Gibco, 15140) and 1.0 mg/mL geneticin (Invitrogen, 1181103). CHO-M1 was grown in Ham’s F12 (Gibco, 21765) supplemented with 10% fetal bovine serum (Gibco, 10270, South America origin) +100 units/mL penicillin and 100 μg/mL streptomycin (Invitrogen, 15140–122) and 0,25 mg/mL geneticin (Life Technologies, 11811–031). Compound 1a and carbamoylcholine chloride (Sigma-Aldrich, C4382) were used as positive controls in the two cell lines, respectively.
30.000 cells/well were plated in black 96-well plates with flat clear bottoms (Corning, Falcon, 353219) and incubated overnight. The Fluo-4 dye loading solution (Invitrogen, F36206) was prepared according to the manufacturer’s instructions by dissolving it in HEPES buffer supplemented with 2.5 mM probenecid. 50 μL dye loading solution was added to each well. Cells were incubated with the Fluo-4 dye for 60 min at 37 °C, then washed with 100 μL HEPES buffer. 100 μL HEPES buffer supplemented with 2.5 mM probenecid was then added to each well and incubated in 10 minutes at 37 °C before measurement. 33 μL of the test compounds (4x concentrated) were added automatically after baseline measurements. Intracellular calcium change was recorded on a NOVOstar instrument (BMG Labtech) at 37 °C with an excitation filter of 485 nm and an emission filters 520 nm. Data originate from three independent experiments in triplicates.

| Compound | pEC50 |
| --- | --- |
| COc1cc(C(=O)NCC(=O)N2CCCc3ccccc32)cc(OC)c1OC | < 5.00 |
| CCn1c(C)nc2cc(C(=O)NNC(=O)Cc3ccccc3F)ccc21 | < 5.00 |
| O=C(CNC(=O)c1ccc2c(c1)OCO2)NCc1ccc2c(c1)OCO2 | < 5.00 |
| CC(Oc1cccc(Br)c1)C(=O)NNC(=O)c1ccc2[nH]cnc2c1 (stereo not shown) | < 5.00 |
